# Results reported in publication PMC12024814, “Ruthenium(II)–Arene Complexes with a 2,2′-Bipyridine Ligand as Anti-Aβ Agents” (Biomolecules, 2025).
# Tests used:
# [1] = Aqueous stability by 1H NMR (DMSO-D6/D2O, 37 °C); assay type: physicochemical; conditions: DMSO-D6 in D2O
# Method: A common step in the mechanism of action for most metal-based drugs is ligand exchange around the metal center. This promotes the coordination of the complex to the penultimate biological target, eliciting the desired response. […] Therefore, to evaluate the relative stability of the prepared complexes, ^1H NMR studies were performed. Following complete dissolution of the complexes in deuterated DMSO, dilution using D2O to a final DMSO concentration of 25% provided aqueous samples that were measured following prolonged incubation at 37 °C.
# For the majority of the complexes, new signals emerged in close proximity to those of the parent complex, even without any incubation. […] A previously study monitoring ligand exchange for RuB in the presence of several proteins saw that neither the arene ring nor the 2,2-bipyridine ligands were lost, but rather the labile monodentate chloride ligand was replaced.
# HSA = conditions: cited from earlier work
Substance,DMSO necessary to maintain solubility [1],log K (binding to HSA) (HSA)
"[Ru(η^6-p-cymene)(4,4′-di-tert-butyl-2,2′-bipyridine)Cl]PF6 [RuBtB]",75%,–
indomethacine,–,5.31
